PubChem BioAssay (NCI)
Only a part is listed here, and it is no random draw.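 Negative percent growth values reflect cell death: -40 means 40% of the cells present at the start died, and -100 means all died.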 Active and inactive are the calls of the source. Rule for the calls: active = growth percent below 10; inactive = the rest.

Legend:
Assay in all cases: NCI-60 one-dose screen, 48 h (100 = growth as untreated, 0 = no growth, -100 = all killed)
Conditions in all cases: 10 µM
NCI-H23 lung = system: NCI-H23 lung
NCI-H226 lung = system: NCI-H226 lung
NCI-H322M lung = system: NCI-H322M lung
HOP-62 NSCLC = system: HOP-62 NSCLC
NCI-H460 lung = system: NCI-H460 lung
HOP-92 NSCLC = system: HOP-92 NSCLC
NCI-H522 lung = system: NCI-H522 lung
A549/ATCC NSCLC = system: A549/ATCC NSCLC
786-0 renal = system: 786-0 renal
COLO 205 colon = system: COLO 205 colon

Measured: growth

Cc1ccc(CN(CCCl)CCCl)cc1C
inactive: NCI-H23 lung 102% | NCI-H226 lung 93.9% | NCI-H322M lung 98.8% | HOP-62 NSCLC 106% | NCI-H460 lung 96.3% | HOP-92 NSCLC 94.9% | NCI-H522 lung 72.1% | A549/ATCC NSCLC 104% | 786-0 renal 97% | COLO 205 colon 107%

[O-][n+]1onc(-c2ncon2)c1-c1ncon1
inactive: NCI-H23 lung 96.2% | NCI-H322M lung 99.9% | HOP-62 NSCLC 107% | NCI-H460 lung 109% | HOP-92 NSCLC 101% | A549/ATCC NSCLC 104% | 786-0 renal 97.7%
active: NCI-H522 lung -74.2% | COLO 205 colon -24.4%

C[N+](C)(CCCl)CCCl
inactive: NCI-H23 lung 118% | NCI-H226 lung 104% | NCI-H322M lung 110% | HOP-62 NSCLC 107% | NCI-H460 lung 106% | A549/ATCC NSCLC 97.3% | 786-0 renal 108% | COLO 205 colon 116%

CC(C)(C)C(=O)CBr
inactive: NCI-H23 lung 107% | NCI-H226 lung 93.7% | NCI-H322M lung 101% | HOP-62 NSCLC 104% | NCI-H460 lung 110% | A549/ATCC NSCLC 106% | 786-0 renal 93.6% | COLO 205 colon 112%

O=P1(N(CCCl)CCCl)SCCCS1
inactive: NCI-H23 lung 98.3% | NCI-H226 lung 110% | NCI-H322M lung 132% | HOP-62 NSCLC 110% | NCI-H460 lung 111% | NCI-H522 lung 111% | A549/ATCC NSCLC 104% | 786-0 renal 102% | COLO 205 colon 125%

Cc1ccccc1CN(CCCl)CCCl
inactive: NCI-H23 lung 94.2% | NCI-H226 lung 81.2% | NCI-H322M lung 102% | NCI-H460 lung 97.3% | HOP-92 NSCLC 87% | NCI-H522 lung 69% | A549/ATCC NSCLC 97.6% | 786-0 renal 108% | COLO 205 colon 101%

COc1cccc(N(CCCl)CCCl)c1OC
inactive: NCI-H23 lung 74.3% | NCI-H226 lung 85.9% | NCI-H322M lung 132% | HOP-62 NSCLC 56.2% | NCI-H460 lung 28.1% | NCI-H522 lung 62.4% | 786-0 renal 94.4% | COLO 205 colon 86.9%

CC1(C)NC(=O)N(CCN(CCCl)CCCl)C1=O
inactive: NCI-H23 lung 109% | NCI-H226 lung 101% | NCI-H322M lung 91.8% | HOP-62 NSCLC 108% | NCI-H460 lung 104% | 786-0 renal 99.9% | COLO 205 colon 106%

NC(=O)C1(Nc2ccccc2)CCN(Cc2ccccc2)CC1
inactive: NCI-H23 lung 101% | NCI-H226 lung 96% | NCI-H322M lung 98.1% | HOP-62 NSCLC 98% | NCI-H460 lung 117% | HOP-92 NSCLC 96% | NCI-H522 lung 95.5% | A549/ATCC NSCLC 103% | 786-0 renal 103% | COLO 205 colon 113%

O=C1CCN(Cc2ccccc2)CC1
inactive: NCI-H23 lung 97.5% | NCI-H322M lung 102% | HOP-62 NSCLC 120% | NCI-H460 lung 108% | HOP-92 NSCLC 69.5% | NCI-H522 lung 105% | A549/ATCC NSCLC 94.5% | 786-0 renal 103%

O=C(O)Cc1c[nH]c2ccc(N(CCCl)CCCl)cc12
inactive: NCI-H23 lung 104% | NCI-H226 lung 98.5% | NCI-H322M lung 129% | HOP-62 NSCLC 108% | NCI-H460 lung 94.1% | HOP-92 NSCLC 79.2% | NCI-H522 lung 95.1% | A549/ATCC NSCLC 108% | 786-0 renal 107% | COLO 205 colon 115%

Fc1cccc(CBr)c1
inactive: NCI-H23 lung 102% | NCI-H226 lung 102% | NCI-H322M lung 93.2% | HOP-62 NSCLC 99.2% | NCI-H460 lung 108% | HOP-92 NSCLC 113% | NCI-H522 lung 108% | A549/ATCC NSCLC 101% | 786-0 renal 90.3% | COLO 205 colon 115%

Oc1ccc(O)c(CN(CCCl)CCCl)c1
inactive: NCI-H23 lung 105% | NCI-H226 lung 96% | NCI-H322M lung 99.3% | HOP-62 NSCLC 96.9% | NCI-H460 lung 102% | A549/ATCC NSCLC 104% | 786-0 renal 117% | COLO 205 colon 97.3%

Cc1ccc(CN(CCCl)CCCl)cc1
inactive: NCI-H23 lung 90% | NCI-H226 lung 84.8% | NCI-H322M lung 94.3% | NCI-H460 lung 92.8% | HOP-92 NSCLC 84.4% | NCI-H522 lung 72.4% | A549/ATCC NSCLC 95.1% | 786-0 renal 96.2% | COLO 205 colon 96%
